The source of these data is patent publication US20250188058A1, “NEW FORMS OF N-(5-((6,7-DIMETHOXYQUINOLIN-4-YL)OXY)PYRIDIN-2-YL)-1-PROPYL-4-(2,2,2-TRIFLUOROETHOXY)-1H-PYRAZOLE-3-CARBOXAMIDE HYDROCHLORIDE” (QURIENT CO., LTD., priority 2022, published 2025).

SMILES strings stand for the structures.

A short description of the data set: Aqueous solubility of crystalline salts of Q702 (slurried overnight in deionised water, HPLC). The following applies: crystalline salts slurried overnight in deionised water (pH = 6.8), solution pH measured.

Take `CCCn1cc(OCC(F)(F)F)c(C(=O)Nc2ccc(Oc3ccnc4cc(OC)c(OC)cc34)cn2)n1.O=S(=O)(O)c1ccc2ccccc2c1` [Napsylate]: the pH of solution was found to be 3.58.
